Results on 3 molecules are retold here after publication PMC2665022 (Biochemistry, 2009).

Data set [1] deals with PutA (proline dehydrogenase domain, PutA86-630) (Escherichia coli, UniProt P09546, Y540S).
Data set [2] concerns the target PutA (proline dehydrogenase domain, PutA86-630) (Escherichia coli, UniProt P09546, Y540A). The following applies: read-out: Ki for THFA.
Data set [3] has as its target PutA (proline dehydrogenase domain, PutA86-630) (Escherichia coli, UniProt P09546). The following applies: read-out: Ki for THFA.
Substrate in data set [4]: O=C(O)[C@@H]1CCCN1
In words: purified protein. The following applies: FAD active site; 25.0 °C.

Take `Cc1cc2nc3c(=O)[nH]c(=O)nc-3n(C[C@H](O)[C@H](O)[C@H](O)COP(=O)(O)OP(=O)(O)OC[C@H]3O[C@@H](n4cnc5c(N)ncnc54)[C@H](O)[C@@H]3O)c2cc1C` [FAD]: the “X-ray crystal structure (1.85 Å, oxidized, with THFA)” value in data set [1] is given as “with the FAD cofactor bound at the C-terminal ends of the strands of the barrel”.
As for `O=C(O)[C@@H]1CCCO1` [compound 6, L-tetrahydro-2-furoic acid], the figures for the Ki in data set [2] and in data set [3] were 7.9 ± 0.5 mM and 0.084 ± 0.003 mM, respectively.

B1: PutA (proline dehydrogenase domain, PutA86-630) (Escherichia coli K-12) (protein)
chain: LPQSVSRAAITAAYRRPETEAVSMLLEQARLPQPVAEQAHKLAYQLADKLRNQKNASGRAGMVQGLLQEFSLSSQEGVALMCLAEALLRIPDKATRDALIRDKISNGNWQSHIGRSPSLFVNAATWGLLFTGKLVSTHNEASLSRSLNRIIGKSGEPLIRKGVDMAMRLMGEQFVTGETIAEALANARKLEEKGFRYSYDMLGEAALTAADAQAYMVSYQQAIHAIGKASNGRGIYEGPGISIKLSALHPRYSRAQYDRVMEELYPRLKSLTLLARQYDIGINIDAEESDRLEISLDLLEKLCFEPELAGWNGIGFVIQAYQKRCPLVIDYLIDLATRSRRRLMIRLVKGAYWDSEIKRAQMDGLEGYPVYTRKVYTDVSYLACAKKLLAVPNLIYPQFATHNAHTLAAIYQLAGQNYYPGQYEFQCLHGMGEPLYEQVTGKVADGKLNRPCRIYAPVGTHETLLAYLVRRLLENGANTSFVNRIADTSLPLDELVADPVTAVEKLAQQEGQTGLPHPKIPLPRDLYGHGRDNSAGLDLANEHRL
Regarding B1, in data set [4], the Km (commonly the concentration of substrate that gives half-maximal velocity) was 59 mM; the kcat (as a rule, the maximal rate divided by the concentration of active sites) is 29 s⁻¹; the kcat/Km – broadly, the second-order rate constant that governs catalysis at low substrate concentration – came to 492 M⁻¹ s⁻¹.
